Experiments:
A549 [1] = experiment: Influence of PARP-1 cellular activity on NAD+ levels at a concentration of 25 uM of the compound; conditions: Homo sapiens
A549 [2] = experiment: Influence of PARP-1 cellular activity in human lung carcinoma A549 cells on %ADP Polymer formation at a concentration of 25 uM of the compound

Compound | NAD+ level (A549 [1]) [%] | ADP formation (A549 [2]) [%]
CN(N=O)C(=N)N[N+](=O)[O-] | 21 | 100
CN(C)Cc1ccc(-c2[nH]c3cccc4c3c2CCNC4=O)cc1.CN(N=O)C(=N)N[N+](=O)[O-] | 87 | 6
CN(N=O)C(=N)N[N+](=O)[O-].O=C1NCCc2c(-c3ccccc3)[nH]c3cccc1c23 | 81 | 13
CN(N=O)C(=N)N[N+](=O)[O-].Cn1c(-c2ccccc2)c2c3c(cccc31)C(=O)NCC2 | 24 | 105
